Sequences of proteins named here, by UniProt entry; tags and fusion partners are left off. Residues count along the entry.
UniProt P07766, 23-207: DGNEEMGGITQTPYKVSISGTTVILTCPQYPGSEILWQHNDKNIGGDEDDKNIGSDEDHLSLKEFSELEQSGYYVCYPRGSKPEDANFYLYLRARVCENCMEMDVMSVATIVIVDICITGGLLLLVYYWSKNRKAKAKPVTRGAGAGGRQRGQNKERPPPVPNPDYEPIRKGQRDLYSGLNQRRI

According to US20220195388A1:

Molecular target: CD3 (TCR/CD3 complex) on the surface of Jurkat cells, PBMCs and T responder cells (UniProt P07766)
Assay: flow cytometry, PBMCs stained with OKT3 Fab-multimers, treated with D-biotin and washed; remaining Fab monomers detected with fresh PE-labeled Strep-Tactin; live cells

For “αCD3 Fab fragment derived from OKT3, heavy chain C-terminally fused to the Twin-Strep-tag (monomeric, not multimerized)”, the percentage of cells within gate was 0.018%.
